For some of these results: What follows is the remainder of the data, with few or none of the strong results. The list shows a part of the results, in another mix than the full data.
How the values were obtained:
[1] = biological target: Epidermal growth factor receptor (Homo sapiens) (UniProt P00533); conditions: at 1 µM
[2] = biological target: Epidermal growth factor receptor (Homo sapiens) (UniProt P00533); conditions: at 10 µM
[3] = biological target: T1, Eukaryotic elongation factor 2 kinase (Homo sapiens) (UniProt O00418); conditions: at 1 µM
T1 sequence (whole entry): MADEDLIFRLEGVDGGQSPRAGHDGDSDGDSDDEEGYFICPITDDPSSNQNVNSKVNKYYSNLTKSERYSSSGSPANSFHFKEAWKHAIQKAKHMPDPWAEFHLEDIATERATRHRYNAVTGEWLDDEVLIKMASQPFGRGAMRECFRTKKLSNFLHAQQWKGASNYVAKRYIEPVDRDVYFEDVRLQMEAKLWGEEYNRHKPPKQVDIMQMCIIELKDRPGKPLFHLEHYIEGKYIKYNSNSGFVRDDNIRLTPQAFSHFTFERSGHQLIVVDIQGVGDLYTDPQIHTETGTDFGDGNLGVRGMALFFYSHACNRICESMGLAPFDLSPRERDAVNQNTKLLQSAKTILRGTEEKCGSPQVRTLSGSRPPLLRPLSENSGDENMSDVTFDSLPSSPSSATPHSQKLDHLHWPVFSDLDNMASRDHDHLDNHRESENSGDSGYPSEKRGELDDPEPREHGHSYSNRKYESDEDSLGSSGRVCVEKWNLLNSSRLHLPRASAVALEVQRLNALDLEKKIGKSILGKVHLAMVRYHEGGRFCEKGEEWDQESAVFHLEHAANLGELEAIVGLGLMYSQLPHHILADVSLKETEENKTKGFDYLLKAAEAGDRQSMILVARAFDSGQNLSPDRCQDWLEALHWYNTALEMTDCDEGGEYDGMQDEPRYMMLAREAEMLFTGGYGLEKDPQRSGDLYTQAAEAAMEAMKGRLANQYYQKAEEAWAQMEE

Protein sequences, listed by entry. Tags and fused reporters are not part of them. Lines headed by an entry give the natural chain unless they say otherwise; changes in a name come on top.
UniProt P54756, whole entry: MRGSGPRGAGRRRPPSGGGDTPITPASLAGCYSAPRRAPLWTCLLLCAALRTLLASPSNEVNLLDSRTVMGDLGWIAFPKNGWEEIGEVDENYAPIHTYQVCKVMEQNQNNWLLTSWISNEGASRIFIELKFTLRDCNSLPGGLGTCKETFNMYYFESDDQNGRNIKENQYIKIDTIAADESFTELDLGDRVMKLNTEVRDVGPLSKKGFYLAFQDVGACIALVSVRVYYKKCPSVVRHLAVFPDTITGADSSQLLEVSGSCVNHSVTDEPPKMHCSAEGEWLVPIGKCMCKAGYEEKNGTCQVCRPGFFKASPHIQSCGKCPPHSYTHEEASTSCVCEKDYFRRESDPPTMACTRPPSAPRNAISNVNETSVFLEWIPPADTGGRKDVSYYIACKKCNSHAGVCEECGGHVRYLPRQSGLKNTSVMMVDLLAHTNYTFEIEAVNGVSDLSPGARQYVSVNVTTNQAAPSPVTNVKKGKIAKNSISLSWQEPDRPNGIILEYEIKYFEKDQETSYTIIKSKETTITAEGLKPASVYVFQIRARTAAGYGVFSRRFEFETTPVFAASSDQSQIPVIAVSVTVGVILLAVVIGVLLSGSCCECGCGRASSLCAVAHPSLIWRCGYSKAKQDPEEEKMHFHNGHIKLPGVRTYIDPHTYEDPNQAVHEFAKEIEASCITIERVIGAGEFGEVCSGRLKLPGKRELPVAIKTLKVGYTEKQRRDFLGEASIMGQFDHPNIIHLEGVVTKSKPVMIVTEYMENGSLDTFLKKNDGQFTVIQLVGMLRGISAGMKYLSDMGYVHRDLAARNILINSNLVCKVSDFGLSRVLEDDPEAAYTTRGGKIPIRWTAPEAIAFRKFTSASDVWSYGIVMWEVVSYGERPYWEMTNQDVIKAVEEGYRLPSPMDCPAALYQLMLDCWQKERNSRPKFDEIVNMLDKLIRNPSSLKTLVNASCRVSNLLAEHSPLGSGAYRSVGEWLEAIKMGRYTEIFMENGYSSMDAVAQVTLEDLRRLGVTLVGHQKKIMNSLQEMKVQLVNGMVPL
UniProt Q13464: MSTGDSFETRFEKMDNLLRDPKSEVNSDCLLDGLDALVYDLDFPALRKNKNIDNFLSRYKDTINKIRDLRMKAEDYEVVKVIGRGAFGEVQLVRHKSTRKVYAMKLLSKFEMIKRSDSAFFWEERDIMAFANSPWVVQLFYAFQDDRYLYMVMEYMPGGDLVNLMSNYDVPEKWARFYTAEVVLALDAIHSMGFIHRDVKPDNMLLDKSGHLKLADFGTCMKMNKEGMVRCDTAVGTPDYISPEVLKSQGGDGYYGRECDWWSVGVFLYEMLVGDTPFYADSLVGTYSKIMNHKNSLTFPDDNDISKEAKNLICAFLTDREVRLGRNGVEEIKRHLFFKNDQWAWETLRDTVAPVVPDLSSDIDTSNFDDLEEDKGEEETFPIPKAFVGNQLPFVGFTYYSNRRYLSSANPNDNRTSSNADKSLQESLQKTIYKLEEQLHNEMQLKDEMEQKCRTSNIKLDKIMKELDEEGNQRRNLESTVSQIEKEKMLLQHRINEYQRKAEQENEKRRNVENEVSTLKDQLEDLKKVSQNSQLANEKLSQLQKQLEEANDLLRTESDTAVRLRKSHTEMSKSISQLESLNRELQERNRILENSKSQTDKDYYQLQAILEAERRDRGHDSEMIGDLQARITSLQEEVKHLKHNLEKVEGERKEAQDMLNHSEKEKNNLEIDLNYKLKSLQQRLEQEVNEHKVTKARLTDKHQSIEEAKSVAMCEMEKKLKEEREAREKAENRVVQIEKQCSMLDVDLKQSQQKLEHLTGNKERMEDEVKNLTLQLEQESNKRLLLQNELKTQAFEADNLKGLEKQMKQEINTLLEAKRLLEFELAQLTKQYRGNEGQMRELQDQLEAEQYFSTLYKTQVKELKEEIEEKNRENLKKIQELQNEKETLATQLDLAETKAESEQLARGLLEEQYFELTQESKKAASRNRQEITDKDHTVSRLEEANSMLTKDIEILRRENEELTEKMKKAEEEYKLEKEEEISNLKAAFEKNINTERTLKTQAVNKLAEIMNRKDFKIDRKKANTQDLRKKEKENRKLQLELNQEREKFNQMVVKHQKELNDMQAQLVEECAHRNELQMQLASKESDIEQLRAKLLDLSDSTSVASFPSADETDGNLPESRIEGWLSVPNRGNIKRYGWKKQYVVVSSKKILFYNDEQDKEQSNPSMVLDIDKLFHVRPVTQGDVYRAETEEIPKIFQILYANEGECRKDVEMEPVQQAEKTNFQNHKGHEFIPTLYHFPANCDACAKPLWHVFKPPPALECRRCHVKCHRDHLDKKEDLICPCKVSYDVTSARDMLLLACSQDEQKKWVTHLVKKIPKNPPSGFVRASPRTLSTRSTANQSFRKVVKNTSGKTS
UniProt Q15759, whole entry: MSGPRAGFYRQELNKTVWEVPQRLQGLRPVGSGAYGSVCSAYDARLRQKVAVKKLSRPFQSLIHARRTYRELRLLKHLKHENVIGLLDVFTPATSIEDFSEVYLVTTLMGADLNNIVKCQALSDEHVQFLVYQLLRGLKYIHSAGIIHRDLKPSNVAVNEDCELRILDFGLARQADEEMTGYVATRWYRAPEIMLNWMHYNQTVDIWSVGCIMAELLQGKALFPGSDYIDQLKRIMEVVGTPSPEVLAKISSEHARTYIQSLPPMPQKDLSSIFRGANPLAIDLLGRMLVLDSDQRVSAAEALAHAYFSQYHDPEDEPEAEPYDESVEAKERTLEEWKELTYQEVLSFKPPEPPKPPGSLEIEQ
UniProt Q96SB4, whole entry: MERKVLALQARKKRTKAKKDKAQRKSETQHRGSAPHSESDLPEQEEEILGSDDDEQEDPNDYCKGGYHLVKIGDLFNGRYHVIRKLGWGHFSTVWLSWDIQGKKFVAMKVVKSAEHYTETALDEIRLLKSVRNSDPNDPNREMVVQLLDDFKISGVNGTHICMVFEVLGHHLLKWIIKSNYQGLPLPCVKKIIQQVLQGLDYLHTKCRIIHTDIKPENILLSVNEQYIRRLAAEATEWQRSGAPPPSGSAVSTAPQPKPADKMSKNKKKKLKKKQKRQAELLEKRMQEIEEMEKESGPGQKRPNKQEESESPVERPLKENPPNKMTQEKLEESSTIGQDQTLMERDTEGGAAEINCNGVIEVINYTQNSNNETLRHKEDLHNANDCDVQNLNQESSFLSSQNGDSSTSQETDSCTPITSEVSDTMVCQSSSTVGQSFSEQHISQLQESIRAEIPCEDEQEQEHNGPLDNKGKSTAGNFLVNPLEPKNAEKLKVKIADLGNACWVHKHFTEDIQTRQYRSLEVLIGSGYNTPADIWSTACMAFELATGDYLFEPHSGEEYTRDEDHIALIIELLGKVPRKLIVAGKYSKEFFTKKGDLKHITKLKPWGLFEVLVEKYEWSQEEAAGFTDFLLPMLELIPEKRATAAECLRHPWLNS
UniProt O15111: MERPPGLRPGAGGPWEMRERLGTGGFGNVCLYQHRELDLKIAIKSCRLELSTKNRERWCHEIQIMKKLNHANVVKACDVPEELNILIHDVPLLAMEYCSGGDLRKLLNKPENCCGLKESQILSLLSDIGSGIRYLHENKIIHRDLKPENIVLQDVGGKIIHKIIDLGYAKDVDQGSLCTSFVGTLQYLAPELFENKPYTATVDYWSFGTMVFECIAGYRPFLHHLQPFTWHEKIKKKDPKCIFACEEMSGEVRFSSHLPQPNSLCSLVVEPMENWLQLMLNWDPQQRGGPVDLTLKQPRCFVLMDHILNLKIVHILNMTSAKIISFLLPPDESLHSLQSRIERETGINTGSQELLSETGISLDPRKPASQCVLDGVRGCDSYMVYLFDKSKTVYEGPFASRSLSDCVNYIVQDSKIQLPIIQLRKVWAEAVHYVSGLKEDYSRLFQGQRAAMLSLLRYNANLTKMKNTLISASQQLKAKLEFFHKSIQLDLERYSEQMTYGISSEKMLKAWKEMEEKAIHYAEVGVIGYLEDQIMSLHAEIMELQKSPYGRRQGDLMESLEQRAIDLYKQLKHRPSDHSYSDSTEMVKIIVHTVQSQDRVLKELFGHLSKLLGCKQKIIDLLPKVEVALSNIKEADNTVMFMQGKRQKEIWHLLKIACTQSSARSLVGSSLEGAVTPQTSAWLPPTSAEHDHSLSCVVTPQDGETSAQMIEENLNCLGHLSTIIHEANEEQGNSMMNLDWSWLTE
UniProt Q9Y3S1: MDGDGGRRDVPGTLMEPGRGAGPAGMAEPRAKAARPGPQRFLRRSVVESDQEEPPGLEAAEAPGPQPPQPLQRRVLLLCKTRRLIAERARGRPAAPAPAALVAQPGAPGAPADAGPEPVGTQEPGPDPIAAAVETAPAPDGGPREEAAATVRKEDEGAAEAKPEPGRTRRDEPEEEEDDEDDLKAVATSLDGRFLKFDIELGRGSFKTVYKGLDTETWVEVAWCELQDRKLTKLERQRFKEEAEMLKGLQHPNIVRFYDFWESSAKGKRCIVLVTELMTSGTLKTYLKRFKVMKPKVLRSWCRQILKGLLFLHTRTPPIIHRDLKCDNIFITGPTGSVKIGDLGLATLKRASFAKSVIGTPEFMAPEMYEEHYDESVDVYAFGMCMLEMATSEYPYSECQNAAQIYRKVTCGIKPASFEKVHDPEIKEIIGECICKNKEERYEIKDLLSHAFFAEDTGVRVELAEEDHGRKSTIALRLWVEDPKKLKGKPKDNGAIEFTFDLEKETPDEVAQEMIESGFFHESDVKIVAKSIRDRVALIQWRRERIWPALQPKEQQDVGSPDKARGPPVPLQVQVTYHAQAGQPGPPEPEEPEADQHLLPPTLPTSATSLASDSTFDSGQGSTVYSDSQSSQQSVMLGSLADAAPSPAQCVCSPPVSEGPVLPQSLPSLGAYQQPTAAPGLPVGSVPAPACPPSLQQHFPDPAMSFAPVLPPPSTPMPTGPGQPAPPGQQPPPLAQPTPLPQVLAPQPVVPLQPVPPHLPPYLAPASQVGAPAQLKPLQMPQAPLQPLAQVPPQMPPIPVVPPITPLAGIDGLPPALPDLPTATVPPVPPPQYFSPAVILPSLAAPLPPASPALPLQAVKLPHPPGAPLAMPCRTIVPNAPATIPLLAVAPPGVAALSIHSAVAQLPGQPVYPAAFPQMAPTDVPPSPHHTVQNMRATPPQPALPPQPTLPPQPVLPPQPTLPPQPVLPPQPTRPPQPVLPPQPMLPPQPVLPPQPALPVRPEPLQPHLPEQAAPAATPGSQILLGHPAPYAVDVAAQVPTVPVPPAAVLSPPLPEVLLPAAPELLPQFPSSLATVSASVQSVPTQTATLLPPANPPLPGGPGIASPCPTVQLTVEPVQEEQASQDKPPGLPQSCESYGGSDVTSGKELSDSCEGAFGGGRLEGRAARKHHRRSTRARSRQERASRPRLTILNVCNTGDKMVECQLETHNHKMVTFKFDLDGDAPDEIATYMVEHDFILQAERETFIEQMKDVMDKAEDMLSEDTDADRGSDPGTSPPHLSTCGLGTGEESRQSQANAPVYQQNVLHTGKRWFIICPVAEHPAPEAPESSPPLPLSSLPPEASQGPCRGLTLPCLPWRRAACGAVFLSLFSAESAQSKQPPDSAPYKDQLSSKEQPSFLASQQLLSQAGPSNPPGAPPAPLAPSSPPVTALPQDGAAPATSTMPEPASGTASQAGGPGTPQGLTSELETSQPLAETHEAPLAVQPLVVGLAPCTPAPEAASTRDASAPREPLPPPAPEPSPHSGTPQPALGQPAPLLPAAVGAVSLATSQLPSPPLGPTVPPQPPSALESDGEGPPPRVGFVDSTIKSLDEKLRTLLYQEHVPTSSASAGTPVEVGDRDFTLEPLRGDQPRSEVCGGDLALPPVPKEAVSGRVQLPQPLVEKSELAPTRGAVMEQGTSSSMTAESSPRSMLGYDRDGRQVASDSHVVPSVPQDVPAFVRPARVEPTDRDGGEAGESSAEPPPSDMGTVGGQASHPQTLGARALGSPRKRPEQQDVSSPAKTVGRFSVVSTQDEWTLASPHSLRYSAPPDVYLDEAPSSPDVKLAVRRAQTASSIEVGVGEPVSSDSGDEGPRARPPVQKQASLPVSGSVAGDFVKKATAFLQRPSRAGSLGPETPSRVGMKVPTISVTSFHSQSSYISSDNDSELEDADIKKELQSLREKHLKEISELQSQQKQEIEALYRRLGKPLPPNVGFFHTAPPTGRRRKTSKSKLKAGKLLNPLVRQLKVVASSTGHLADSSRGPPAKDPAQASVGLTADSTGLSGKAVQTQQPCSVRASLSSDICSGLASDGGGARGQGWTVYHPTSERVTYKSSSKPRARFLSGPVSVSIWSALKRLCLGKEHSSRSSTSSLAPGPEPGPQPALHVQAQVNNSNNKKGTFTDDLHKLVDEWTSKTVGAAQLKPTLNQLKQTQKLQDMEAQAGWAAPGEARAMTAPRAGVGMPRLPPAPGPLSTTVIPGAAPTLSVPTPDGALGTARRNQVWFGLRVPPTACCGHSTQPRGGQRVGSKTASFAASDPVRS

[4] = biological target: Tyrosine-protein kinase BTK (Homo sapiens) (UniProt Q06187); conditions: at 1 µM
[5] = biological target: CDK3/cyclin E (Homo sapiens) (UniProt P24864+O96020+Q00526); conditions: at 1 µM
[6] = biological target: Tyrosine-protein kinase CSK (Homo sapiens) (UniProt P41240); conditions: at 10 µM
[7] = biological target: Ephrin type-A receptor 5 (Homo sapiens) (UniProt P54756); conditions: at 1 µM
[8] = biological target: Receptor tyrosine-protein kinase erbB-4 (Homo sapiens) (UniProt Q15303); conditions: at 1 µM
[9] = biological target: Receptor tyrosine-protein kinase erbB-4 (Homo sapiens) (UniProt Q15303); conditions: at 10 µM
[10] = biological target: Fibroblast growth factor receptor 4 (Homo sapiens) (UniProt P22455); conditions: at 1 µM
[11] = biological target: Glycogen synthase kinase-3 alpha (Homo sapiens) (UniProt P49840); conditions: at 10 µM
[12] = biological target: Protein kinase C eta type (Homo sapiens) (UniProt P24723); conditions: at 1 µM
[13] = biological target: Serine/threonine-protein kinase pim-1 (Homo sapiens) (UniProt P11309); conditions: at 1 µM
[14] = biological target: Rho-associated protein kinase 1 (Homo sapiens) (UniProt Q13464); conditions: at 10 µM
[15] = biological target: Macrophage-stimulating protein receptor (Homo sapiens) (UniProt Q04912); conditions: at 1 µM
[16] = biological target: Proto-oncogene tyrosine-protein kinase ROS (Homo sapiens) (UniProt P08922); conditions: at 10 µM
[17] = biological target: Mitogen-activated protein kinase 11 (Homo sapiens) (UniProt Q15759); conditions: at 1 µM
[18] = biological target: Mitogen-activated protein kinase 12 (Homo sapiens) (UniProt P53778); conditions: at 1 µM
[19] = biological target: Mitogen-activated protein kinase 13 (Homo sapiens) (UniProt O15264); conditions: at 10 µM
[20] = biological target: SRSF protein kinase 1 (Homo sapiens) (UniProt Q96SB4); conditions: at 1 µM
[21] = biological target: TGF-beta receptor type-1 (Homo sapiens) (UniProt P36897); conditions: at 1 µM
[22] = biological target: Inhibitor of nuclear factor kappa-B kinase subunit alpha (Homo sapiens) (UniProt O15111); conditions: at 1 µM
[23] = biological target: Mitogen-activated protein kinase 9 (Homo sapiens) (UniProt P45984); conditions: at 1 µM
[24] = biological target: MAP kinase-activated protein kinase 3 (Homo sapiens) (UniProt Q16644); conditions: at 1 µM
[25] = biological target: MAP kinase-activated protein kinase 3 (Homo sapiens) (UniProt Q16644); conditions: at 10 µM
[26] = biological target: Dual specificity mitogen-activated protein kinase kinase 7 (Homo sapiens) (UniProt O14733); conditions: at 1 µM
[27] = biological target: Serine/threonine-protein kinase MRCK alpha (Homo sapiens) (UniProt Q5VT25); conditions: at 10 µM
[28] = biological target: Serine/threonine-protein kinase VRK2 (Homo sapiens) (UniProt Q86Y07); conditions: at 10 µM
[29] = biological target: Serine/threonine-protein kinase WNK2 (Homo sapiens) (UniProt Q9Y3S1); conditions: at 1 µM;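 also: residual WNK2 kinase activity expressed as percent of uninhibited control, assayed in MOPS buffer at pH 7.0 containing EDTA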
[30] = biological target: T1, Eukaryotic elongation factor 2 kinase (Homo sapiens); conditions: at 10 µM
[31] = biological target: Serine/threonine-protein kinase mTOR (Homo sapiens) (UniProt P42345); conditions: at 1 µM
[32] = biological target: Serine/threonine-protein kinase Nek7 (Homo sapiens) (UniProt Q8TDX7); conditions: at 1 µM
[33] = biological target: Serine/threonine-protein kinase Nek7 (Homo sapiens) (UniProt Q8TDX7); conditions: at 10 µM
[34] = biological target: RAC-alpha serine/threonine-protein kinase (Homo sapiens) (UniProt P31749); conditions: at 10 µM
[35] = biological target: Protein kinase C alpha type (Homo sapiens) (UniProt P17252); conditions: at 10 µM
[36] = biological target: Protein kinase C gamma type (Homo sapiens) (UniProt P05129); conditions: at 1 µM
[37] = biological target: Serine/threonine-protein kinase pim-2 (Homo sapiens) (UniProt Q9P1W9); conditions: at 10 µM

O=c1c2ccccc2[nH]c(=S)n1CCN1CCC(=C(c2ccc(F)cc2)c2ccc(F)cc2)CC1
residual activity [1]: 119% | residual activity [2]: 113% | residual activity [3]: inactive: 97%

CCN(CC)CCNC(=O)c1c(C)[nH]c(/C=C2\C(=O)Nc3ccc(Cl)cc32)c1C
residual activity [4]: 83% | residual activity [5]: 87% | residual activity [6]: 84% | residual activity [1]: 107% | residual activity [7]: 109% | residual activity [8]: 86% | residual activity [9]: 104% | residual activity [10]: 101% | residual activity [11]: 84% | residual activity [12]: 110% | residual activity [13]: 85% | residual activity [14]: 90% | residual activity [15]: 91% | residual activity [16]: 87% | residual activity [17]: 95% | residual activity [18]: 108% | residual activity [19]: 88% | residual activity [20]: 112% | residual activity [21]: 101% | residual activity [22]: 93% | residual activity [23]: 111% | residual activity [24]: 108% | residual activity [25]: 106% | residual activity [26]: 92% | residual activity [27]: 113% | residual activity [28]: 86% | residual activity [29]: inactive: 105% | residual activity [3]: inactive: 105% | residual activity [30]: 85% | residual activity [31]: 102% | residual activity [32]: inactive: 102% | residual activity [33]: inactive: 109% | residual activity [34]: 103% | residual activity [35]: 83% | residual activity [36]: 94%

O=C(O)/C=C/c1cc(Br)c(Br)c(Br)c1Br
residual activity [1]: 25% | residual activity [30]: 86%

O=C1c2ccccc2-[n+]2ccc3c([nH]c4ccccc43)c21
residual activity [1]: 9% | residual activity [2]: 0% | residual activity [3]: inactive: 99% | residual activity [30]: 95%

COc1cc2ncnc(Nc3cccc(Cl)c3)c2cc1OC
residual activity [3]: inactive: 85%

N#C/C(=C(\N)Sc1ccc(N)cc1)c1ccccc1C(F)(F)F
residual activity [1]: 112% | residual activity [2]: 113% | residual activity [3]: inactive: 81% | residual activity [30]: 82%

O=C1NC(=O)c2c1c1c3ccccc3[nH]c1c1[nH]c3cc(Br)ccc3c21
residual activity [1]: 8% | residual activity [2]: 9% | residual activity [3]: inactive: 90% | residual activity [30]: 103%

Oc1ccc(-c2nc(-c3ccc(F)cc3)c(-c3ccncc3)[nH]2)cc1
residual activity [37]: 107% | residual activity [3]: inactive: 109% | residual activity [30]: 106%

COc1ccc(OC)c2c(=S)c3ccccc3[nH]c12
residual activity [1]: 71% | residual activity [3]: inactive: 98% | residual activity [30]: 95%

Cc1cncc2cccc(S(=O)(=O)N3CCCN(C(=O)CN)C[C@H]3C)c12
residual activity [2]: 91%

Nc1ncnc2[nH]nc(Nc3ccc(F)cc3)c12
residual activity [3]: inactive: 100%

COc1ccc(S(=O)(=O)N(CCO)c2ccccc2CN(C)C/C=C/c2ccc(Cl)cc2)cc1
residual activity [1]: 118% | residual activity [2]: 110% | residual activity [3]: inactive: 106% | residual activity [30]: 89%

Cn1cc(/C=C2\C(=O)Nc3ccc(S(N)(=O)=O)cc32)c2ccccc21
residual activity [1]: 103% | residual activity [2]: 114% | residual activity [3]: inactive: 98% | residual activity [30]: 94%

Nc1ccc2ncnc(NCCc3ccc(Oc4ccccc4)cc3)c2c1
residual activity [1]: 99% | residual activity [3]: inactive: 97% | residual activity [30]: 101%

Oc1ccc(Nc2nc(-c3ccc(Cl)cc3)cs2)cc1
residual activity [1]: 108% | residual activity [2]: 105% | residual activity [3]: inactive: 96% | residual activity [30]: 143%

COc1ccc(C(=O)Nc2sc3c(c2C(N)=O)CCCC3)cc1OC
residual activity [2]: 104% | residual activity [3]: inactive: 83% | residual activity [30]: 105%

Source: ChEMBL document CHEMBL2218924, “A broad activity screen in support of a chemogenomic map for kinase signalling research and drug discovery” (Biochem J, 2013)
